In experiment [1] the test system is Poly I:C-induced ICAM-1 expression in BEAS2B cells. As to the kind of experiment: Poly I:C-induced ICAM-1 expression in BEAS2B cells. It counts as cell-based. The note with it: Homo sapiens, BEAS-2B, read-out: Poly IC induced ICAM1 in BEAS2B IC50. Here is the method: Poly I:C is used in these studies as a simple, RNA virus mimic. Poly I:C-Oligofectamine mixture (1 μg/mL Poly I:C, ±2% Oligofectamine, 25 uL) (Invivogen Ltd., San Diego, Calif., and Invitrogen, Carlsbad, Calif., respectively) is transfected into BEAS2B cells (human bronchial epithelial cells, ATCC). Cells are pre-incubated with final concentrations of test compounds for 2 hr and the level of ICAM1 expression on the cell surface is determined by cell-based ELISA. […]
The cells are washed with PBS-Tween (3×200 μL) and incubated with the secondary antibody (100 μL) (HRP-conjugated anti-rabbit IgG, Dako Ltd., Glostrup, Denmark). […] The ICAM-1 signal is detected by reading and reading the absorbance at 450 nm against a reference wavelength of 655 nm using a spectrophotometer. The cells are then washed with PBS-Tween (3×200 μL) and total cell numbers in each well are determined by reading absorbance at 595 nm after Crystal Violet staining (50 μL of a 2% solution in PBS) and elution by 1% SDS solution (100 μL) in distilled water. The measured OD 450-655 readings are corrected for cell number by dividing with the OD595 reading in each well. The inhibition of ICAM-1 expression is calculated at each concentration of test compound by comparison with vehicle control.

Sequences of proteins named here, by UniProt entry; tags and fusion partners are left off.
UniProt P12931, whole entry, looked up: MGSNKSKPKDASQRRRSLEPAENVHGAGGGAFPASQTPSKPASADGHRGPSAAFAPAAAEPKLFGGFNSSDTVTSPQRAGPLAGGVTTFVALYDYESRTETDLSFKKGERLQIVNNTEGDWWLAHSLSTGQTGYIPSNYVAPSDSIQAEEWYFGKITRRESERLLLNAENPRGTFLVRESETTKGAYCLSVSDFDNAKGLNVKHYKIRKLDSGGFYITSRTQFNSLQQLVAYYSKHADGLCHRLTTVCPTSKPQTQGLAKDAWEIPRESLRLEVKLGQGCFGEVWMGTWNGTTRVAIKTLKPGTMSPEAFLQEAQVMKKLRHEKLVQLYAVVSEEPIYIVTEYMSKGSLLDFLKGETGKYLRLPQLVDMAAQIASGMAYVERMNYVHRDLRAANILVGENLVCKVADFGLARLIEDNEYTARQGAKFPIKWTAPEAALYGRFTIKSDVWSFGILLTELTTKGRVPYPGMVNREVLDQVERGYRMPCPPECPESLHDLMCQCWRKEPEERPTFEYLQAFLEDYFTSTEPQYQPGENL
UniProt Q16539, whole entry: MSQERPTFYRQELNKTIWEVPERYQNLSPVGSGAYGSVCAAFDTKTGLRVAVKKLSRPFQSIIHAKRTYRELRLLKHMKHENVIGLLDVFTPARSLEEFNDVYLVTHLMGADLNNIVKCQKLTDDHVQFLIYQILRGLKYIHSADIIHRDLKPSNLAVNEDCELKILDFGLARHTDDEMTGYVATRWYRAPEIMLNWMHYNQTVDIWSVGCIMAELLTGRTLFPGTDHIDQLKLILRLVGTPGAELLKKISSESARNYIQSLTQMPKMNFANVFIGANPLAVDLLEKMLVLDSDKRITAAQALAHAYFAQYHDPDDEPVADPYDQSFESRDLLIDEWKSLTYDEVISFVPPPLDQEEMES

The target in the next experiment is cSrc (Homo sapiens (Human), UniProt P12931). As to the kind of experiment: c-Src enzyme inhibition (FRET, Z-LYTE). It counts as biochemical.
The next experiment has as its target Syk (Homo sapiens (Human), UniProt P43405). As to the kind of experiment: Syk enzyme inhibition (FRET, Z-LYTE). It counts as biochemical. How it is done:
The enzyme inhibitory activities of compounds disclosed herein are determined by FRET using synthetic peptides labelled with both donor and acceptor fluorophores (Z-LYTE, Invitrogen Ltd., Paisley, UK).
The inhibitory activities of compounds of the invention against c-Src and Syk enzymes (Invitrogen), are evaluated in a similar fashion to that described hereinabove. The relevant enzyme (3000 ng/mL or 2000 ng/mL respectively, 2.5 μL) is incubated with the test compound (either 4 μg/mL, 0.4 μg/mL, 0.04 μg/mL, or 0.004 μg/mL, 2.5 μL each) for 2 hr at RT. The FRET peptides (8 μM, 2.5 μL), and appropriate ATP solutions (2.5 μL, 800 μM for c-Src, and 60 μM ATP for Syk) are then added to the enzymes/compound mixtures and incubated for 1 hr. Development reagent (protease, 5 μL) is added for 1 hr prior to detection in a fluorescence microplate reader (Varioskan® Flash, ThermoFisher Scientific).
In all cases, the site-specific protease cleaves non-phosphorylated peptide only and eliminates the FRET signal. Phosphorylation levels of each reaction are calculated using the ratio of coumarin emission (donor) over fluorescein emission (acceptor), for which low ratios indicate high phosphorylation and high ratios indicate low phosphorylation levels.

The target in a further experiment is p38 MAPKα (Homo sapiens (Human), UniProt Q16539). As to the kind of experiment: p38 MAPKα enzyme inhibition (FRET, Z-LYTE). It counts as biochemical.

As for `Cc1ccc(-n2nc(C(C)(C)C)cc2NC(=O)Nc2ccc(Oc3ccnc(Nc4cnc5[nH]ccc5c4)n3)c3ccccc23)cc1` [Example 32, 1-(4-((2-((1H-pyrrolo[2,3-b]pyridin-5-yl)amino)pyrimidin-4-yl)oxy)naphthalen-1-yl)-3-(3-(tert-butyl)-1-(p-tolyl)-1H-pyrazol-5-yl)urea], the results for the half-maximal inhibitory concentration (IC50) (in experiment [1]; at cSrc; against Syk) were 14.3 nM, 14 nM and 14 nM, respectively.
In the case of `Cc1ccc(-n2nc(C(C)(C)C)cc2NC(=O)Nc2ccc(Oc3ccnc(Nc4cccc5[nH]ncc45)n3)c3ccccc23)cc1` [Example 21], the IC50 against cSrc and against p38 MAPKα was 21 nM throughout.
